From article PMC7504216 (Molecules, 2020)

By UniProt entry, the sequences of proteins in these tests, tags left out. Residues count along the entry.
UniProt P27338, whole entry: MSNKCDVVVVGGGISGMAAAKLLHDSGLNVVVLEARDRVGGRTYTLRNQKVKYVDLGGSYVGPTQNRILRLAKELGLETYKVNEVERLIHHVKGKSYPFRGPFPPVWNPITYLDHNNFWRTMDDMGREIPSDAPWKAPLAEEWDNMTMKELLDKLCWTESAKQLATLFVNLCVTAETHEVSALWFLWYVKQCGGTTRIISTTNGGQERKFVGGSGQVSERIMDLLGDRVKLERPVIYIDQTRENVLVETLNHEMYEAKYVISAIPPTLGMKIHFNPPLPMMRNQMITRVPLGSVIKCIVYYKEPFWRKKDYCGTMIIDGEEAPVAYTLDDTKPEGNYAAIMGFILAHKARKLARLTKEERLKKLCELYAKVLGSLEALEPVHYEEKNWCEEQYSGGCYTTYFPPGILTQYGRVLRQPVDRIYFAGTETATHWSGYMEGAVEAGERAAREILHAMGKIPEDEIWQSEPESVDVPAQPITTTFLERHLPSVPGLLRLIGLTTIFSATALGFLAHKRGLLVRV
UniProt P21397, whole entry: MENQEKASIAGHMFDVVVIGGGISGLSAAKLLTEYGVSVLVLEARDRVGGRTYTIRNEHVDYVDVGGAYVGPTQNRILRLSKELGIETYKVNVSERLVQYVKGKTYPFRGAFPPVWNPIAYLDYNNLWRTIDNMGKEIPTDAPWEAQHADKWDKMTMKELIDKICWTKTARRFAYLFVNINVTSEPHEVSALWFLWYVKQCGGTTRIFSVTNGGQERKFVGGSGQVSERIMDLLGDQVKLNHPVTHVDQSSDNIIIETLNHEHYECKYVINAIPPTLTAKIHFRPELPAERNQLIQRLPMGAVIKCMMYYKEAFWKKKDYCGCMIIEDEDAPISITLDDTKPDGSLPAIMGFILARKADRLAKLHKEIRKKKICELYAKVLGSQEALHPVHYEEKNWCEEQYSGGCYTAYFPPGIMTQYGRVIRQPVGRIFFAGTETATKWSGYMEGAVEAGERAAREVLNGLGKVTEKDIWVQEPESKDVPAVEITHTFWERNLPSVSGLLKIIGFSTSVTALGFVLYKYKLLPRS
UniProt P81908, whole entry: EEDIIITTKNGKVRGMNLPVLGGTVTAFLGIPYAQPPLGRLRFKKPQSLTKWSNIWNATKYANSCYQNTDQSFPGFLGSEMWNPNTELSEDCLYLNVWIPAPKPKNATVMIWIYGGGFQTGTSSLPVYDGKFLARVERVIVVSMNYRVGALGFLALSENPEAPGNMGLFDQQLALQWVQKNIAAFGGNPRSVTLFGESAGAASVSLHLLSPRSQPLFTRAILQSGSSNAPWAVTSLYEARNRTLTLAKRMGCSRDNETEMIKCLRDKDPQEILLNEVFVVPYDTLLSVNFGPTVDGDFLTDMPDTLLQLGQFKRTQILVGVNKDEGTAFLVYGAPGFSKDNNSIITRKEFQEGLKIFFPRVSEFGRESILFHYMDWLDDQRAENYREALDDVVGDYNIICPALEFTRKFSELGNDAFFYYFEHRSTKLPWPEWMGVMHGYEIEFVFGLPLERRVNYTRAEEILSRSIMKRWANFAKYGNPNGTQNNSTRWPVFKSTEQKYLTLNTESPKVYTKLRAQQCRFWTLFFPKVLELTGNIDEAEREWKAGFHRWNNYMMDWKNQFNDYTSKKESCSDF
UniProt O42275, 24-633: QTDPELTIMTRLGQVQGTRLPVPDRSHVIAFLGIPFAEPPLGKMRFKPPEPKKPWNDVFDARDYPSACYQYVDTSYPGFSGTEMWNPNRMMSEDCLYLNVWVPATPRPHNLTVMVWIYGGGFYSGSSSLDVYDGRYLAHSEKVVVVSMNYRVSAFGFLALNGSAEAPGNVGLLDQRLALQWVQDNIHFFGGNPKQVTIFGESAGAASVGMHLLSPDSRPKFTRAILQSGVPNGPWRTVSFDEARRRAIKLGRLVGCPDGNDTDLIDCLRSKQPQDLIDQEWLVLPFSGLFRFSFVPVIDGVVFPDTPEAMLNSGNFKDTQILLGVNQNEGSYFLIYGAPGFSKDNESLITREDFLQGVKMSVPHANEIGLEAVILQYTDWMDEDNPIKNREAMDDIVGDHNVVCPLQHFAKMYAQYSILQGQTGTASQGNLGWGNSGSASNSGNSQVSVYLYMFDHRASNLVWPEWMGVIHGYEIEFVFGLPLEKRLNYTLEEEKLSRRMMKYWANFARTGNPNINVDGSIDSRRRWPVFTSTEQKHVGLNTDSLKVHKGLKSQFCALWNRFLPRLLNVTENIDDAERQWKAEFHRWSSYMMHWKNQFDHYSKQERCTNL

Key:
recombinant human MAO-B = recombinant human MAO-B (Homo sapiens, UniProt P27338); type: biochemical; set-up: purchased Sigma-Aldrich; conditions: read-out: IC50 (µM) MAO-B; mean ± SE, triplicate
recombinant human MAO-A = target: T1, recombinant human MAO-A (Homo sapiens, UniProt P21397); type: biochemical; conditions: read-out: IC50 (µM) MAO-A; mean ± SE, triplicate
T1 construct: purchased Sigma-Aldrich

BChE from equine serum = BChE from equine serum (Equus caballus, UniProt P81908); assay: BChE inhibition assay (Ellman, BTCI) and kinetics; conditions: read-out: IC50 (µM) BChE; mean ± SE, triplicate
[1] = target: T2, AChE from Electrophorus electricus (Electrophorus electricus, UniProt O42275); assay: AChE inhibition assay (Ellman, ATCI); type: biochemical; conditions: read-out: IC50 (µM) AChE; mean ± SE, triplicate
T2 construct: purchased Sigma-Aldrich

| Substance | IC50 (recombinant human MAO-B) [µM] | IC50 (recombinant human MAO-A) [µM] | IC50 (BChE from equine serum) [µM] | IC50 [1] [µM] |
| --- | --- | --- | --- | --- |
| isoliquiritin apioside | > 40 | > 40 |  |  |
| liquiritin apioside | > 40 | > 40 | > 40 | 36.7 ± 1.42 |
